For 1 compound, IC50 results are on record in ChEMBL document CHEMBL3102826 (J Med Chem, 2013).

For the assay, the target named is Dual specificity tyrosine-phosphorylation-regulated kinase 1A (Homo sapiens, UniProt Q13627). Description: Inhibition of DYRK1A (unknown origin).

`CCN1/C(=C/C(C)=O)Sc2ccc(OC)cc21` displayed an IC50 of 930 nM.

Usually IC50 stands for the midpoint of a concentration-inhibition curve.
